# Experimental Henry's law constant values from OPERA 2.9

Data: OPERA 2.9 data sets, kmansouri/OPERA on GitHub.

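OPERA's authors assembled the values from existing databases and did not measure them anew. One number stands for a compound and property, with no spread given. Conditions of the individual experiments are not part of the data. A value may pool stereoisomers or salt forms, and the file does not say which form was measured. Some upstream entries may be estimates or bounds without being marked so.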

Henry's law constant (air-water partitioning) is log10 of atm·m3/mol, nominally at 25 °C. "via" names the databases from which the curators took the value.

Listed for CCOc1ccc(NC(=O)OC(C)C)cc1OCC [Diethofencarb]: log H -9.046 (log10 atm·m3/mol) (via OCHEM).
Listed for CCNc1nc(NC(C)CC)nc(OC)n1 (stereo unspecified) [Secbumeton]: log H -8.445 (log10 atm·m3/mol) (via OCHEM).
Listed for O=C(O)COc1ccc(Cl)cc1CO [Cloxyfonac]: log H -5.949 (log10 atm·m3/mol) (via OCHEM).
Listed for CCOC(=O)CSc1nc(C(C)(C)C)nn1C(=O)N(C)C [Triazamate]: log H -9.353 (log10 atm·m3/mol) (via OCHEM).
Listed for CCN(CC)C(=O)SCc1ccccc1Cl [Orbencarb]: log H -5.882 (log10 atm·m3/mol) (via OCHEM).
Listed for CCCCCCCC/C=C\CCCCCCCCNC(=O)CCCCCCCCCCCCCCC [N-Oleylpalmitic acid amide]: log H -3.85 (log10 atm·m3/mol) (via eChemPortal).
Listed for Cc1ccc(C(C)NC(=O)[C@@H](NC(=O)OC(C)C)C(C)C)cc1 (some centres undefined) [Iprovalicarb]: log H -10.86 (log10 atm·m3/mol) (via OCHEM).
Listed for CCCC(=O)N(C)C [Butanamide, N,N-dimethyl-]: log H -6.83 (log10 atm·m3/mol) (via OCHEM).
Listed for NCCCOCCOCCOCCCN [3,3'-[Oxybis(ethane-2,1-diyloxy)]dipropan-1-amine]: log H -10.68 (log10 atm·m3/mol) (via eChemPortal).
Listed for COC(=O)c1ccccc1S(=O)(=O)NC(=O)Nc1nc(OC(F)F)cc(OC(F)F)n1 [Primisulfuron-methyl]: log H -6.404 (log10 atm·m3/mol) (via OCHEM).
Listed for NC(=O)Nc1ccc(Cl)cc1 [4-Chlorophenylurea]: log H -9.827 (log10 atm·m3/mol) (via OCHEM).
Listed for CNC(=O)N(C)c1nnc(C(F)(F)F)s1 [2-(N,N'-Dimethylureido)-5-trifluoromethyl-1,3,4-thiadiazole]: log H -10.64 (log10 atm·m3/mol) (via OCHEM).
Listed for Nc1ccc(F)cc1 [4-Fluoroaniline]: log H -4.932 (log10 atm·m3/mol) (via eChemPortal).
Listed for CCCCCC(C)OC(=O)COc1ccc(Cl)c2cccnc12 (stereo unspecified) [Cloquintocet-mexyl]: log H -7.526 (log10 atm·m3/mol) (via OCHEM).
Listed for CC(Oc1ccc(Oc2cnc3cc(Cl)ccc3n2)cc1)C(=O)OCC1CCCO1 (stereo unspecified) [Quizalofop-P-tefuryl]: log H -8.051 (log10 atm·m3/mol) (via OCHEM).
Listed for CC(C)Nc1nc(=O)nc(NC(C)C)[nH]1 [1,3,5-Triazin-2(1H)-one, 4,6-bis((1-methylethyl)amino)-]: log H -5.802 (log10 atm·m3/mol) (via OCHEM).
Listed for CCCCC(CC)CN(CC(CC)CCCC)Cn1cncn1 (stereo unspecified) [1H-1,2,4-Triazole-1-methanamine, N,N-bis(2-ethylhexyl)-]: log H -6.474 (log10 atm·m3/mol) (via eChemPortal).
Listed for Cc1ccc(N=c2sccn2C)c(C)c1 [Cymiazole]: log H -7.463 (log10 atm·m3/mol) (via OCHEM).
Listed for CCOC(=O)/C(Cl)=C/c1cc(N2C(=O)C3=C(CCCC3)C2=O)ccc1Cl [Cinidon-ethyl]: log H -6.166 (log10 atm·m3/mol) (via OCHEM).
Listed for CCS(=O)(=O)c1cccnc1S(N)(=O)=O [3-(Ethylsulfonyl)pyridine-2-sulfonamide]: log H -9.696 (log10 atm·m3/mol) (via OCHEM).
Listed for CN(C)C=C1OC(=O)C(C#N)=C1c1ccccc1 [Difunone]: log H -10.5 (log10 atm·m3/mol) (via OCHEM).
Listed for CC1CC(CC2CC(C)C(N)C(C)C2)CC(C)C1N (stereo unspecified) [4,4'-Methylenebis(2,6-dimethylcyclohexan-1-amine)]: log H -8.01 (log10 atm·m3/mol) (via eChemPortal).

Extract of 3 entries:

structure (SMILES)	name	log H (log10 atm·m3/mol)	via
CC1CC(CC2CC(C)C(N)C(C)C2)CC(C)C1N (stereo unspecified)	4,4'-Methylenebis(2,6-dimethylcyclohexan-1-amine)	-8.01	eChemPortal
CC(Oc1ccc(Oc2cnc3cc(Cl)ccc3n2)cc1)C(=O)OCC1CCCO1 (stereo unspecified)	Quizalofop-P-tefuryl	-8.051	OCHEM
Cc1ccc(N=c2sccn2C)c(C)c1	Cymiazole	-7.463	OCHEM